Assay results reported in PubChem BioAssay AID602141 (Sanford-Burnham Center for Chemical Genomics, 2011).
The entries are a selection whose mix differs from that of the whole data set. Calls of active or inactive are those of the source.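 The calls were made as follows: active = corrected activity change at or below -50% at 5 µM; inactive = the rest.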

assay: KKLEB cell viability reduction – uHTS, fluorescence assay plates, cytotoxicity control for CF NF-kB inhibitor project, primary screen (AID 602141); details: KKLEB CF airway cells viability, ATPlite luminescence, overnight; at 5 µM; active compounds read low; cells stimulated with P. aeruginosa culture filtrate

| Structure (SMILES) | activity change (cytotoxicity) |
| --- | --- |
| CP(=S)(Nn1cnnc1)Oc1ccccc1 (centres undefined) | inactive: 3.9% |
| CP(=O)(Nc1ccccc1Br)Oc1ccccc1 (centres undefined) | inactive: -3.2% |
| COc1ccccc1OP(C)(=O)Nc1ccccc1 (centres undefined) | inactive: 1.8% |
| CCOC(=O)c1ccc(NP(C)(=O)Oc2ccc(OC)cc2)cc1 (centres undefined) | inactive: 11.8% |
| O=[N+]([O-])c1cc([N+](=O)[O-])c(O)c([N+](=O)[O-])c1.c1ccc(Oc2ccncc2)cc1 | inactive: 6% |
| CCOP(C)(=S)SCC(=O)NC(C)C(=O)O (centres undefined) | inactive: -3.9% |
| CP(=O)(Nc1ccccn1)Oc1ccc(Cl)cc1 (centres undefined) | inactive: -4% |
| CP(=O)(Oc1ccccc1)OC(c1ccccc1)C(F)(F)F (centres undefined) | inactive: 10.2% |
| Cc1ccc(Nc2c([N+](=O)[O-])cc([N+](=O)[O-])cc2[N+](=O)[O-])cc1 | inactive: 0.5% |
| Cc1cccc(C)c1OP(C)(=O)Nc1ccc(SC(F)(F)F)cc1 (centres undefined) | inactive: -1.7% |
| CP(=O)(Nc1ccc(SC(F)(F)F)cc1)Oc1ccc(Cl)cc1 (centres undefined) | inactive: -27% |
| Cc1cc(C)cc(OP(C)(=O)Nc2ccc(SC(F)(F)F)cc2)c1 (centres undefined) | inactive: 2% |
| CCc1ccc(OP(C)(=O)N2CCN(c3ccc([N+](=O)[O-])cc3)CC2)cc1 (centres undefined) | inactive: 2.4% |
| CP(=O)(NC(=O)Nc1ccccc1)Oc1ccccc1 (centres undefined) | inactive: 2.7% |
| CCN(CC)CCCOC(=O)C(O)(c1ccccc1)c1ccccc1 | inactive: 7.9% |
| Cc1ccc(NP(C)(=O)Oc2ccccc2)c(C)c1 (centres undefined) | inactive: 0.9% |
| COc1ccccc1OP(C)(=O)Nc1ccc(C)cc1 (centres undefined) | inactive: -4.9% |
| CCOC(=O)c1ccc(NP(C)(=O)Oc2ccccc2)cc1 (centres undefined) | inactive: -29.4% |
| Cc1cc(C)cc(OP(C)(N)=O)c1 (centres undefined) | inactive: 9.6% |
| COc1ccc(OP(C)(=O)Nc2cccc(F)c2)cc1 (centres undefined) | inactive: -10.3% |
| COc1ccccc1OP(C)(=O)Nc1cc(Cl)ccc1C (centres undefined) | inactive: -1.1% |
| O=[N+]([O-])c1cc([N+](=O)[O-])c(Nc2cccnc2)c([N+](=O)[O-])c1 | inactive: 8.5% |
| O=[N+]([O-])c1ccc2c(c1)C=Nc1ccccc1O2 | inactive: -40.8% |
| Cc1cccc(C)c1OP(C)(N)=O (centres undefined) | inactive: 9.7% |
| CC(C)(C)c1ccc(OP(C)(=O)Nc2ccc(SC(F)(F)F)cc2)cc1 (centres undefined) | inactive: -13% |
| CC1=NCCc2c1[nH]c1ccccc21.O=[N+]([O-])c1cc([N+](=O)[O-])c(O)c([N+](=O)[O-])c1 | inactive: -5.7% |
| O=C(O)c1cccc(Nc2c([N+](=O)[O-])cc([N+](=O)[O-])cc2[N+](=O)[O-])c1 | inactive: -5.5% |

| Structure (SMILES) | activity change (cytotoxicity) |
| --- | --- |
| Cc1ccc(C)c(NP(C)(=O)Oc2ccccc2)c1 (centres undefined) | inactive: -13.4% |
| CP(=O)(Nc1cccc(Br)c1)Oc1ccccc1 (centres undefined) | inactive: 18.1% |
| Cc1cc(C)cc(OP(C)(=O)Nc2ccccn2)c1 (centres undefined) | inactive: -6.2% |
| COc1ccccc1OP(C)(=O)Nc1cccc(Br)c1 (centres undefined) | inactive: 13.5% |
| CCOC(=O)c1ccc(NP(C)(=O)Oc2cc(C)cc(C)c2)cc1 (centres undefined) | inactive: -7.6% |
| Cc1cc(C)cc(OP(C)(=O)Nc2ccc(C)cc2C)c1 (centres undefined) | inactive: 2.9% |
| O=[N+]([O-])c1cc([N+](=O)[O-])c(-c2cnn(-c3ccccc3)c2)c([N+](=O)[O-])c1 | inactive: -23.4% |
| Cc1nc2ccc3ccccc3c2s1.O=[N+]([O-])c1cc([N+](=O)[O-])c(O)c([N+](=O)[O-])c1 | inactive: -15.3% |
| O=[N+]([O-])c1cc([N+](=O)[O-])c(-n2nnc3ccccc32)c([N+](=O)[O-])c1 | inactive: 5% |
| CN(Cc1cccnc1)C(=O)COc1ccc(Cl)c(Cl)c1.O=[N+]([O-])c1cc([N+](=O)[O-])c(O)c([N+](=O)[O-])c1 | inactive: 2.7% |
| COc1ccccc1OP(C)(=O)Nc1c(C)cccc1C (centres undefined) | inactive: -4.9% |
| CN1CCCCC1COC(=O)C1(O)c2ccccc2CCc2ccccc21 (centres undefined) | inactive: -1.9% |
| CP(=O)(Nc1ccc(SC(F)(F)F)cc1)Oc1ccccc1 (centres undefined) | inactive: -7.9% |
| CCCOc1ccc(NP(C)(=O)Oc2ccc(Cl)cc2)cc1 (centres undefined) | inactive: -1.1% |
| CCOC(=O)C(CC)C1=NC(C)(C)Cc2ccccc21.O=[N+]([O-])c1cc([N+](=O)[O-])c(O)c([N+](=O)[O-])c1 (centres undefined) | inactive: 6.7% |
| O=[N+]([O-])c1cc([N+](=O)[O-])c(Nc2nnnn2CCO)c([N+](=O)[O-])c1 | inactive: 2.8% |
| CC1=C2N=C(C=C3N=C(C(C)=C4[N-][C@@](C)([C@@H]5N=C1[C@](C)(CCC(=O)NC[C@@H](C)OP(=O)([O-])O[C@H]1[C@@H](O)[C@@H](n6cnc7cc(C)c(C)cc76)O[C@@H]1CO)[C@H]5CC(N)=O)[C@@](C)(CC(N)=O)[C@@H]4CCC(N)=O)[C@@](C)(CC(N)=O)[C@@H]3CCC(N)=O)C(C)(C)[C@@H]2CCC(N)=O.[C-]#N.[Co+3] | inactive: 12.3% |
| O=[N+]([O-])c1ccc(OP2(=O)COCCO2)cc1 (centres undefined) | inactive: 13.5% |
| Cc1cc(-c2cccc3ccccc23)c(C)cn1.O=[N+]([O-])c1cc([N+](=O)[O-])c(O)c([N+](=O)[O-])c1 | inactive: 6% |
| O=[N+]([O-])c1cc([N+](=O)[O-])c(NCC2CCS(=O)(=O)C2)c([N+](=O)[O-])c1 (centres undefined) | inactive: -4.5% |
| Cc1c(C(c2ccc3c(c2)OCO3)c2c(C)n(C)n(-c3ccccc3)c2=O)c(=O)n(-c2ccccc2)n1C.O=[N+]([O-])c1cc([N+](=O)[O-])c(O)c([N+](=O)[O-])c1 | inactive: -4% |
| COc1ccc(OP(C)(=O)Nc2cccc(Br)c2)cc1 (centres undefined) | inactive: -6.2% |
| CN(C)CCOC(=O)C(O)(c1ccccc1)C1CCCCC1 (centres undefined) | inactive: -24.7% |
| COc1ccc(NP(C)(=O)Oc2ccccc2OC)cc1 (centres undefined) | inactive: -6.5% |
| CP(=O)(Nc1ccc2c(c1)OCCO2)Oc1ccccc1 (centres undefined) | inactive: -6.6% |
| Cc1ccccc1NP(C)(=O)Nc1ccccc1C | inactive: 13.1% |
| CP(=O)(Nc1ccc(SC(F)(F)F)cc1)Oc1ccc(F)cc1 (centres undefined) | inactive: 2.2% |
